Read-outs that look alike come from different tables or passages of the source. Bounds are passed on as bounds.

Chains of the proteins cited; added tags and fusions are not shown.
UniProt P34972, whole entry: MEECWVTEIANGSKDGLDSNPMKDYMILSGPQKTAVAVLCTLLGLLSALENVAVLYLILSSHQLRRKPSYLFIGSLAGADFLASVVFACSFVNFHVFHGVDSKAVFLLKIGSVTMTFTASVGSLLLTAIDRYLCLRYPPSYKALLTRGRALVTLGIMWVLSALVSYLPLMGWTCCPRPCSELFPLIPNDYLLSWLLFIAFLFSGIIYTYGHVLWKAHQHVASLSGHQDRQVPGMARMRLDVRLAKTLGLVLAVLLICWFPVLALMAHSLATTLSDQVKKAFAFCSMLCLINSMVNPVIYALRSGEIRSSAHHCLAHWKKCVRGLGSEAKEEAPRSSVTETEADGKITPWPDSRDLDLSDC
UniProt P21554, whole entry: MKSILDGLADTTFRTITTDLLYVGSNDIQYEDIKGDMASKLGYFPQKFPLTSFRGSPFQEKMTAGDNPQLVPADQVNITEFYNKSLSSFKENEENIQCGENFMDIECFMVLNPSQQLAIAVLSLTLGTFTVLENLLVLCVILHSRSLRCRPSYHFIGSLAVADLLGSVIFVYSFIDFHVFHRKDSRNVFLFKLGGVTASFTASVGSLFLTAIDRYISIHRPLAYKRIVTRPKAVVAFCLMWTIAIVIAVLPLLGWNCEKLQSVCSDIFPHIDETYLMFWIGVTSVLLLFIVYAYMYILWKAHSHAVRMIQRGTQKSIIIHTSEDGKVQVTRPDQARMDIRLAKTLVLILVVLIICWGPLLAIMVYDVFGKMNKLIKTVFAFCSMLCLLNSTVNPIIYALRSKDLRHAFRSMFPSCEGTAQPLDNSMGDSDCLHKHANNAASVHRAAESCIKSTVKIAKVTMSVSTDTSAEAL

Assay [1] deals with Human CB2R (Cannabinoid receptor 2) (Homo sapiens, UniProt P34972). Briefly: CB-2 in vitro cAMP (HTRF) assay. An excerpt:
CB1 and CB2 receptors are Gi-coupled GPCR. Activation of CB1 and CB2 receptors results in a decrease in cAMP production. An inverse agonist of the CB1 or CB2 receptor results in the opposite effect, an increase of cAMP production. The principle of this assay is based on HTRF® technology (Homogeneous Time-Resolved Fluorescence). The method is a competitive immunoassay between native cAMP produced by cells and the cAMP labeled with the fluorophore d2. The tracer binding is quantified by a Mab anti-cAMP labeled with Eu3+TBP-NHS Cryptate (supplied as part of the assay kit). The specific signal (i.e. energy transfer) is inversely proportional to the concentration of cAMP in the standard or sample.
Human CB1R (Cannabinoid receptor 1) was stably transfected in HEK-293 cells (DiscoveRx, cat: 93-0200C1). Human CB2R (Cannabinoid receptor 2) was stably transfected in HEK-293 cells (DiscoveRx, cat: 93-0201C1). Cell cultures were maintained in media: DMEM (Invitrogen Cat#12430-054) supplemented with 10% HI FBS (Invitrogen Cat#16140-071), 1% L-glutamine (Invitrogen Cat#25030-081), 0.2 mg/ml Hygromycin B (Invitrogen Cat#10687-010), 600 μg/mL G418 (Invitrogen Cat#10131-035), and 1× Penn/Strep (Invitrogen 15140-122). After cell expansion, aliquots were cryo-stored in media containing 5% DMSO (Pierce Cat#20684).
One day prior to experiments media was warmed to 37° C. and the cryo-stored cells were thawed in a 37° C. water bath. The cells were then added to media (10× volume) and the mixture was centrifuged at 1000 RPM for 5 min. The supernate was removed and the cells were re-suspended in media. A sample of the cell suspension was evaluated on a Cedex XS automated cell counter (Innovatis Systems) to determine viable cells/ml. Additional media was added to the cells to achieve a final cell density of 4E5 cells/mL. The cells were then plated into 384 well PDL white solid bottom plates (Greiner, Cat#781945) at 20 μL per well using a Multidrop (Thermo Scientific). Cells were removed from Row P (location of cAMP standards). Two columns of cells were plated into a clear bottom 384 well PDL coated plate (Greiner, Cat#781944) to view confluence the day of the assay. The cell plates were lidded and stored for 15 minutes in a hood, then transferred to an incubator (37° C., 5% CO2, 95% humidity) overnight.
DMSO was added to all wells of 384 well V bottom polystyrene plate (Greiner, Cat#781280) except to columns 1 and 13, rows O and P and wells M13-M23 and N13-N23. Test compounds (60 μL, 10 mM) were added to Column 1 and 13 (A1 through N1 and A13 through L13). Test compounds were serially diluted 1/3 by transferring and mixing 20 μl sample with 40 μL DMSO.
DMSO (40 μL) was added to wells of 384 well V bottom polystyrene plate: O2 through O11, M14 through M23, N14 through N23, and O14 through O23. AM630 (also known as [6-iodo-2-methyl-1-[2-(4-morpholinyl)ethyl]-1H-indol-3-yl](4-methoxyphenyl)-methanone, Cayman Chemical, Cat#10006974) (60 μL, 10 mM) was added to O1; and 1-(2,4-dichlorophenyl)-7-[(4-fluorophenyl)methylene]-4,5,6,7-tetrahydro-N-1-piperidinyl-1H-benzimidazole-3-carboxamide (60 μL, 10 mM) was added to N13. The control was serially diluted 1/3 by transferring and mixing 20 μl sample with 40 μL DMSO. This process resulted 11 doses per control, 10 mM to […].
Cells plated the day prior to the assay in clear bottom plates were viewed on an inverse microscope to ensure confluency in the range of 60-75%. […]
For orientation: TR-FRET usually uses a lanthanide donor and a delayed reading to cut background.

Assay [2] concerns the target Human CB1R (Cannabinoid receptor 1) (Homo sapiens, UniProt P21554). The assay can be described thus: CB-1 in vitro cAMP (HTRF) assay.
The mark [3] stands for this setting: read-out: CB2 HEK_cAMP EC50, HEK cells, 250 nM forskolin, mean where tested more than once.
The mark [4] stands for this setting: read-out: CB1 HEK_cAMP EC50, HEK cells, 250 nM forskolin, mean where tested more than once.
Where [5] appears, read: read-out: CB2 HEK_cAMP EC50, HEK cells, 250 nM forskolin, mean where tested more than once, tested form: trifluoroacetate.
Setting [6] is: read-out: CB1 HEK_cAMP EC50, HEK cells, 250 nM forskolin, mean where tested more than once, tested form: trifluoroacetate.

Regarding `Clc1ccc(C(c2ccc3ncn(C4CCCCC4)c3c2)c2nccs2)cc1` (stereo not drawn), the EC50 in assay [1] (setting [3]) is more than 10000 nM; in assay [2] (setting [4]) it was 243 nM.
For the compound `O=S(=O)(N1C2CCC1CC(n1c(-c3ccc(Cl)cc3)nc3ccc(C(c4ccc(Cl)cc4)c4nccs4)cc31)C2)C(F)(F)F` (stereo not drawn), the concentration giving a half-maximal response (EC50) in assay [1] (setting [3]) and in assay [2] (setting [4]) was more than 10000 nM throughout.
With `CCOC(=O)N1C2CCC1CC(n1c(-c3ccc(Cl)cc3)nc3ccc(C(c4ccc(Cl)cc4)c4nccs4)cc31)C2` (stereo not drawn), the concentration for a half-maximal effect (EC50) came to 1630 nM in assay [1] (setting [3]) and 1760 nM in assay [2] (setting [4]).
`CCc1nc2ccc(C(c3ccc(Cl)cc3)c3nccs3)cc2n1C1CC2CCC(C1)N2S(=O)(=O)C(F)(F)F` (stereo not drawn): the EC50 in assay [1] (setting [3]) was more than 10000 nM; in assay [2] (setting [4]), 867 nM.
In the case of `CCOC(=O)N1C2CCC1CC(n1c(CC(C)C)nc3ccc(C(c4ccc(Cl)cc4)c4nccs4)cc31)C2` (stereo not drawn), the half-maximal effective concentration (EC50) in assay [1] (setting [3]) and in assay [2] (setting [4]) was more than 10000 nM throughout.
As to `NC(=O)Cc1ccc(N2CCC(n3c(C4CC4)nc4ccc(C(c5ccc(Cl)cc5)c5ccc(Cl)cc5)cc43)CC2)cc1`, the figures for the EC50 in assay [1] (setting [5]) and in assay [2] (setting [6]) were 5800 nM and 36.4 nM, respectively.
In the case of `CCOC(=O)N1C2CCC1CC(n1c(C3CCCC3)nc3ccc(C(c4ccc(Cl)cc4)c4nccs4)cc31)C2` (stereo not drawn), the EC50 in assay [1] (setting [3]) and in assay [2] (setting [4]) was more than 10000 nM each time.
Turning to `CCc1nc2ccc(C(c3ccc(Cl)cc3)c3nccs3)cc2n1C(C)Cc1ccc(Cl)cc1` (stereo not drawn), the concentration giving a half-maximal response (EC50) is more than 10000 nM in assay [1] (setting [3]) and 162 nM in assay [2] (setting [4]).
`CCOC(=O)N1C2CCC1CC(n1c(CC)nc3ccc(C(c4ccc(Cl)cc4)c4nccs4)cc31)C2` (stereo not drawn): the results for the EC50 in assay [1] (setting [3]) and in assay [2] (setting [4]) were more than 10000 nM and 2720 nM, respectively.
Take `O=C(O)c1cccc(CN2CC(n3c(C4CC4)nc4ccc(C(c5ccc(Cl)cc5)c5ccc(Cl)cc5)cc43)C2)c1`: the EC50 in assay [1] (setting [5]) worked out at 3000 nM; in assay [2] (setting [6]), 26.7 nM.
Take `O=C(O)c1ccc(S(=O)(=O)N2CCC(n3c(C4CC4)nc4ccc(C(c5ccc(Cl)cc5)c5ccc(Cl)cc5)cc43)C2)cc1` (stereo not drawn): the EC50 in assay [1] (setting [3]) is more than 10000 nM; in assay [2] (setting [4]), 154 nM.
For the compound `O=C(O)c1ccc(S(=O)(=O)N2CCC(n3c(C4CC4)nc4ccc(C(c5ccc(Cl)cc5)c5ccc(Cl)cc5)cc43)CC2)cn1`, the EC50 in assay [1] (setting [5]) was determined as 2650 nM; in assay [2] (setting [6]) it was 10 nM.
As to `CCOC(=O)N1C2CCC1CC(n1c(-c3cccnc3)nc3ccc(C(c4ccc(Cl)cc4)c4nccs4)cc31)C2` (stereo not drawn), the values for the EC50 in assay [1] (setting [3]) and in assay [2] (setting [4]) were 2770 nM and 1080 nM, respectively.
On to `CCc1nc2ccc(C(c3ccc(Cl)cc3)c3ccc(Cl)cc3)cc2n1C[C@H](C)c1ccccc1`, for which the results for the EC50 in assay [1] (setting [3]) and in assay [2] (setting [4]) were 3650 nM and 33.2 nM, respectively.
In the same order, the values of `CCOC(=O)N1C2CCC1CC(n1cnc3ccc(C(c4ccc(Cl)cc4)c4nccs4)cc31)C2` (stereo not drawn) are more than 10000 nM and 243 nM.
As for `COC(=O)c1nc2ccc(C(c3ccc(Cl)cc3)c3nccs3)cc2n1C1CC2CCC(C1)N2S(=O)(=O)C(F)(F)F` (stereo not drawn), the values for the EC50 in assay [1] (setting [3]) and in assay [2] (setting [4]) were more than 10000 nM and 196 nM, respectively.
In the same order, the values of `O=S(=O)(N1C2CCC1CC(n1c(-c3ccncc3)nc3ccc(C(c4ccc(Cl)cc4)c4nccs4)cc31)C2)C(F)(F)F` (stereo not drawn) are more than 10000 nM and 7240 nM.
The corresponding values for `OC(Cn1c(C2CC2)nc2ccc(C(c3ccc(Cl)cc3)c3nccs3)cc21)c1ccc(Cl)cc1` (stereo not drawn) are more than 10000 nM and 436 nM.
With `O=C(O)c1ccc(S(=O)(=O)N2CCC(n3c(C4CC4)nc4ccc(C(c5ccc(Cl)cc5)c5ccc(Cl)cc5)cc43)C2)o1` (stereo not drawn), the EC50 in assay [1] (setting [3]) stood at 10300 nM; in assay [2] (setting [4]), 130 nM.
As for `O=S(=O)(N1C2CCC1CC(n1c(C3CCCC3)nc3ccc(C(c4ccc(Cl)cc4)c4nccs4)cc31)C2)C(F)(F)F` (stereo not drawn), the half-maximal effective concentration (EC50) in assay [1] (setting [3]) and in assay [2] (setting [4]) was more than 10000 nM each time.
On to `Cc1nc2ccc(C(c3ccc(Cl)cc3)c3ccc(Cl)cc3)cc2n1C[C@@H](C)c1ccccc1`, for which the values for the EC50 in assay [1] (setting [3]) and in assay [2] (setting [4]) were more than 10000 nM and 416 nM, respectively.
In the same order, the values of `O=S(=O)(N1C2CCC1CC(n1c(-c3cccnc3)nc3ccc(C(c4ccc(Cl)cc4)c4nccs4)cc31)C2)C(F)(F)F` (stereo not drawn) are more than 10000 nM and 2780 nM.
In the same order, the values of `CCOC(=O)N1C2CCC1CC(n1c(C(C)C)nc3ccc(C(c4ccc(Cl)cc4)c4nccs4)cc31)C2` (stereo not drawn) are more than 10000 nM and 719 nM.
In the same order, the values of `CCCc1nc2ccc(C(c3ccc(Cl)cc3)c3nccs3)cc2n1C1CC2CCC(C1)N2S(=O)(=O)C(F)(F)F` (stereo not drawn) are more than 10000 nM and more than 10000 nM.
For `CCOC(=O)N1C2CCC1CC(n1c(-c3ccncc3)nc3ccc(C(c4ccc(Cl)cc4)c4nccs4)cc31)C2` (stereo not drawn), the EC50 in assay [1] (setting [3]) and in assay [2] (setting [4]) was more than 10000 nM in each case.
On to `O=C(O)CCNC(=O)c1ccc(S(=O)(=O)N2CCC(n3c(C4CC4)nc4ccc(C(c5ccc(Cl)cc5)c5ccc(Cl)cc5)cc43)CC2)cn1`, for which the EC50 stood at 4400 nM in assay [1] (setting [3]) and 85.4 nM in assay [2] (setting [4]).
The corresponding values for `O=C(O)c1ccc(S(=O)(=O)N2CC(n3c(C4CC4)nc4ccc(C(c5ccc(Cl)cc5)c5ccc(Cl)cc5)cc43)C2)o1` are 3960 nM and 596 nM.
`CCOC(=O)c1nc2ccc(C(c3ccc(Cl)cc3)c3nccs3)cc2n1C1CC2CCC(C1)N2C(=O)OCC` (stereo not drawn): the half-maximal effective concentration (EC50) in assay [1] (setting [3]) and in assay [2] (setting [4]) was more than 10000 nM throughout.
Turning to `O=S(=O)(N1C2CCC1CC(n1c(C3CCC3)nc3ccc(C(c4ccc(Cl)cc4)c4nccs4)cc31)C2)C(F)(F)F` (stereo not drawn), the concentration for a half-maximal effect (EC50) in assay [1] (setting [3]) and in assay [2] (setting [4]) was more than 10000 nM each time.
On to `Cc1nc2ccc(C(c3ccc(Cl)cc3)c3nccs3)cc2n1C1CCCCC1` (stereo not drawn), for which the EC50 is more than 10000 nM in assay [1] (setting [3]) and 89.9 nM in assay [2] (setting [4]).

The EC50 is the concentration giving half of the maximal effect.

The values are drawn from US20190031618A1, “BENZIMIDAZOLE DERIVATIVES USEFUL AS CB-1 INVERSE AGONISTS” (Janssen Pharmaceutica NV, priority 2015, published 2019).
